Source: PubChem BioAssay (NCI)
Some results for these compounds are left out of this collection, so the calls shown say nothing about other tests.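 Assay format: 96-well plates, 48-hour exposure. GI50: concentration for 50% inhibition of growth.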

Key:
Test in all cases: NCI-60 cell line screen, 48 h; in the data active means GI50 below about 0.43 µM; inactive means the rest
[1] = system: NCI/ADR-RES ovarian
[2] = system: MDA-MB-231 breast
[3] = system: A549 NSCLC
[4] = system: CAKI-1 renal
[5] = system: MALME-3M melanoma
[6] = system: COLO 205 colon
[7] = system: SF-539 CNS
[8] = system: SW-620 colon
[9] = system: SNB-19 CNS
[10] = system: SN12C renal
[11] = system: HCC-2998 colon
[12] = system: NCI-H522 lung
[13] = system: SF-268 CNS
[14] = system: 786-0 renal
[15] = system: UACC-257 melanoma
[16] = system: OVCAR-5 ovarian
[17] = system: MDA-N
[18] = system: NCI-H226 lung
[19] = system: T-47D breast
[20] = system: LOX IMVI melanoma
[21] = system: SR leukemia
[22] = system: SF-295 CNS
[23] = system: ACHN renal
[24] = system: TK-10 renal
[25] = system: OVCAR-8 ovarian
[26] = system: CCRF-CEM leukemia
[27] = system: UO-31 renal
[28] = system: SNB-75 CNS
[29] = system: RPMI-8226 leukemia
[30] = system: EKVX NSCLC
[31] = system: PC-3 prostate
[32] = system: HCT-116 colon
[33] = system: K-562 leukemia
[34] = system: KM12 colon
[35] = system: SK-MEL-28 melanoma
[36] = system: M14 melanoma
[37] = system: NCI-H23 lung
[38] = system: SK-OV-3 ovarian
[39] = system: HT29 colon
[40] = system: IGROV1 ovarian
[41] = system: MOLT-4 leukemia
[42] = system: RXF 393 renal
[43] = system: OVCAR-3 ovarian
[44] = system: DU-145 prostate
[45] = system: U251 CNS
[46] = system: UACC-62 melanoma
[47] = system: HOP-62 NSCLC
[48] = system: HCT-15 colon
[49] = system: SK-MEL-5 melanoma
[50] = system: MCF7 breast
[51] = system: HL-60(TB) leukemia

Measured: GI50

CC(C)C(O)(C(=O)OCC1=CC2CCN1CC2)c1ccccc1 (stereo unspecified)
inactive: [1] > 100 µM | [2] > 100 µM | [3] > 100 µM | [4] > 100 µM | [5] > 100 µM | [6] > 100 µM | [7] > 100 µM | [8] > 100 µM | [9] > 100 µM | [10] > 100 µM | [11] > 100 µM | [12] > 100 µM | [13] > 100 µM | [14] > 100 µM | [15] > 100 µM | [16] > 100 µM | [17] > 100 µM | [18] > 100 µM | [19] > 100 µM | [20] > 100 µM | [21] > 100 µM | [22] > 100 µM | [23] > 100 µM | [24] > 100 µM | [25] > 100 µM | [26] > 100 µM | [27] > 100 µM | [28] > 100 µM | [29] > 100 µM | [30] > 100 µM | [31] > 100 µM | [32] > 100 µM | [33] > 100 µM | [34] > 100 µM | [35] > 100 µM | [36] > 100 µM | [37] > 100 µM | [38] > 100 µM | [39] > 100 µM | [40] > 100 µM | [41] > 100 µM | [42] > 100 µM | [43] > 100 µM | [44] > 100 µM | [45] > 100 µM | [46] > 100 µM | [47] > 100 µM | [48] > 100 µM | [49] > 100 µM | [50] > 100 µM | [51] > 100 µM
